Results as given in ChEMBL document CHEMBL1147722, “Discovery of proline sulfonamides as potent and selective hepatitis C virus NS5b polymerase inhibitors. Evidence for a new NS5b polymerase binding site” (J Med Chem, 2006).

Molecular target: RNA-directed RNA polymerase (Hepacivirus hominis, UniProt O39930)
Test: Inhibition of HCV NS5B RNA dependent RNA polymerase

IC50: 3.1 µM
SMILES: Cc1cc(S(=O)(=O)N2CCC[C@H]2C(=O)O)c(N)cc1Cl
